Assay results from patent US5559132A, “Carboxamide derivatives for treating asthma” (Zeneca Limited, priority 1993, dated 1996).

The chains behind the UniProt entries cited, without tags or fusion partners.
UniProt P21452, whole entry: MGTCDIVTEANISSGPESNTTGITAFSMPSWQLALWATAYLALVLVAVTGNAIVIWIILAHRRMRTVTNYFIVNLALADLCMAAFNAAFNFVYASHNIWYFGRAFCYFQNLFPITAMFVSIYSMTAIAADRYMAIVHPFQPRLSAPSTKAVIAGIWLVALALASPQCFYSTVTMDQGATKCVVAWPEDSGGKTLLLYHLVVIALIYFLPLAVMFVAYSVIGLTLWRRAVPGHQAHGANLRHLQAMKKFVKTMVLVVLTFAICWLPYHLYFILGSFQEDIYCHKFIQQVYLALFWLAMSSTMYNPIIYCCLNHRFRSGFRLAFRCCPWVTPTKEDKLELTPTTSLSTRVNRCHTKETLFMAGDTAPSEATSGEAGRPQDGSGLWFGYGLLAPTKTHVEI

Target: human NK2 receptor expressed in Mouse Erythroleukemia (MEL) cells (MELM) (Homo sapiens, UniProt P21452)
Experiment: Neurokinin A (NKA) Receptor-binding Assay (Test A)
Settings: read-out: IC50 versus 3H-NKA binding to MELM; initial use of this assay; standard compound

- IC50: 30 nM
SMILES: CSCC[C@@H]1NC(=O)[C@H](CC(C)C)NC(=O)CNC(=O)[C@H](Cc2ccccc2)NC(=O)[C@H](Cc2c[nH]c3ccccc23)NC(=O)[C@H](CCC(N)=O)NC1=O
